{"source": "patent US20240123081A1", "about": "“BRANCHED MOIETY FOR USE IN CONJUGATES” (priority 2019, published 2024)", "system": "MDA-MB-453 cells", "test": "In vitro cell viability (Cell Titer-Glo Luminescent Cell Viability Assay)", "format": "cell-based, Human", "conditions": "6 days, comparison in words, cell line taken from preceding sentence (MDA-MB-453)", "description": "Human cancer cell lines SK-BR-3, BT-474, and MDA-MB-453 were seeded into white polystyrene tissue-culture treated 96-well plates (Costar) at a density of 3000 cells/well in RPMI +10% FBS (Invitrogen). On the following day, antibodies and ADCs were spiked into triplicate wells using an 8-point dose curve of 1:4 serial dilutions starting from 0.5 μg/mL. Cell viability was determined 6 days later using the Cell Titer-Glo Luminescent Cell Viability Assay kit (Promega) following the manufacturers protocol. Luminescence was measured using an EnVision 2104 Multilabel Reader (Perkin Elmer). Cell viability was calculated as a percentage of control untreated cells. Results of the in vitro cell viability assay are shown in FIG. 1 (SKBR3 (HER2+) 3000 cells/well) and FIG. 2 (MDA-MB-453 (HER2+) 3000 cells/wells), in which the symbols represent the following antibodies/conjugates: […]"}
{"substance": "Herceptin-19-O-vc-PAB-MMAE-SG3457", "values": [{"measurement": "relative toxicity / potency compared with another conjugate (cell viability)", "result": "equipotent to Herceptin-19-SG3457"}]}
